Reference: PubChem BioAssay (Tox21)
Values joined by “and” are separate entries in the source; they are usually repeats but may differ in a detail not shown here. Equal values may be shown once. Only a part is listed here, and it is no random draw. Inconclusive results are not listed. Active and inactive are the calls of the source. Unless noted, calls come from the whole dose curve; as a rule, active = well fitted curve in the direction sought with a large enough effect in the repeat runs; inconclusive = weak or mixed curves; inactive = no such curve, though single readings can be large; an effect the other way counts as inactive or inconclusive.

Chains of the proteins cited; added tags and fusions are not shown.
UniProt P03372, whole entry: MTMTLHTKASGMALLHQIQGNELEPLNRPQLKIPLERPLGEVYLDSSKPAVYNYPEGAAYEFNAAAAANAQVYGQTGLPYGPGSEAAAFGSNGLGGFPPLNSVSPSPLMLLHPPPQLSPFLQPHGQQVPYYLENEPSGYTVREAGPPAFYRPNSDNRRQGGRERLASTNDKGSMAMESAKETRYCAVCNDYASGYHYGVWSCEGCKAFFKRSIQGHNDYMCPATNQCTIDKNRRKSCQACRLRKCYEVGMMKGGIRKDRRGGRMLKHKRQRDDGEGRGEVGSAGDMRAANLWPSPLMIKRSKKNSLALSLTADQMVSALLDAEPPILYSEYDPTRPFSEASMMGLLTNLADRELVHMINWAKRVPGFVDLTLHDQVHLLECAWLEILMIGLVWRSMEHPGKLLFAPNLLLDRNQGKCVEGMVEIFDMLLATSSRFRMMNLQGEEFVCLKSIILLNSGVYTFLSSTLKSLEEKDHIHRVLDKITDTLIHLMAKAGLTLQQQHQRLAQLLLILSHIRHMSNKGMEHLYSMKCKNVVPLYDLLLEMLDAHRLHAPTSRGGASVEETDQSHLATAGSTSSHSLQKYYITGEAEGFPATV
UniProt P11511, whole entry: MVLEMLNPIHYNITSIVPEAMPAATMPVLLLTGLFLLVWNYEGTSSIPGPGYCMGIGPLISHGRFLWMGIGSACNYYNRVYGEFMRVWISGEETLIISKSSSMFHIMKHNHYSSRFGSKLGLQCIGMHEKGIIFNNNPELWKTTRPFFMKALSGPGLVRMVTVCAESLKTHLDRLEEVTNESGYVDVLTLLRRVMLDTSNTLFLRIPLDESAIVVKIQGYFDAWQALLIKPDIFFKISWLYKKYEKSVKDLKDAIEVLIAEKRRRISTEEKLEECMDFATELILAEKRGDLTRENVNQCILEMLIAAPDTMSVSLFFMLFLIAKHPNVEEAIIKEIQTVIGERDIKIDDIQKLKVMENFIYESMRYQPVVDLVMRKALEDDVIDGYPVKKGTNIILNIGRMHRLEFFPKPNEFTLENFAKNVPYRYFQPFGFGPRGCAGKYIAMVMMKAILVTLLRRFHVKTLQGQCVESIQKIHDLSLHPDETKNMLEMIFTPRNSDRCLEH
UniProt P35869, whole entry: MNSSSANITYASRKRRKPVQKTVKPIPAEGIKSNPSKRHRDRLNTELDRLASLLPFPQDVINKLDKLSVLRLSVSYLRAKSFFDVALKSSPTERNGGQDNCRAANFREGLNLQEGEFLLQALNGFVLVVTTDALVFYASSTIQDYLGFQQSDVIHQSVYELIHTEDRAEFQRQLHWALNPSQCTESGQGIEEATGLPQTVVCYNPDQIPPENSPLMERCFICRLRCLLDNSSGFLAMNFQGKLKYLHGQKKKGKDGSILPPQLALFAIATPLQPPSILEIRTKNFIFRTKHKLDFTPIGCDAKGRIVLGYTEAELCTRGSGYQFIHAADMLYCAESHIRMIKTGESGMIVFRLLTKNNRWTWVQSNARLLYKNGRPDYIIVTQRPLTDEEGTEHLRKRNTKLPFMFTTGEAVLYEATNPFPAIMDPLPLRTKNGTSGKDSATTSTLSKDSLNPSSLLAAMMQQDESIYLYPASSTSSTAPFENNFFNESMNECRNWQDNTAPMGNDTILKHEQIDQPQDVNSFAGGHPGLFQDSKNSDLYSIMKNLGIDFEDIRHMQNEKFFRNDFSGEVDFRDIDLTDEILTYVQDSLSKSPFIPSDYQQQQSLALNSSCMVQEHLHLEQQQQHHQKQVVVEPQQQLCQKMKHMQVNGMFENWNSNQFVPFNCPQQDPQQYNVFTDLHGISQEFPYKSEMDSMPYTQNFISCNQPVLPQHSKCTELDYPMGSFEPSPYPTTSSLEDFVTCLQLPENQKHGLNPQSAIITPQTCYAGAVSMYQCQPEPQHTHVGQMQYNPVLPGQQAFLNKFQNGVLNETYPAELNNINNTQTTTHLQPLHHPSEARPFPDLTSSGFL
UniProt P37231, whole entry: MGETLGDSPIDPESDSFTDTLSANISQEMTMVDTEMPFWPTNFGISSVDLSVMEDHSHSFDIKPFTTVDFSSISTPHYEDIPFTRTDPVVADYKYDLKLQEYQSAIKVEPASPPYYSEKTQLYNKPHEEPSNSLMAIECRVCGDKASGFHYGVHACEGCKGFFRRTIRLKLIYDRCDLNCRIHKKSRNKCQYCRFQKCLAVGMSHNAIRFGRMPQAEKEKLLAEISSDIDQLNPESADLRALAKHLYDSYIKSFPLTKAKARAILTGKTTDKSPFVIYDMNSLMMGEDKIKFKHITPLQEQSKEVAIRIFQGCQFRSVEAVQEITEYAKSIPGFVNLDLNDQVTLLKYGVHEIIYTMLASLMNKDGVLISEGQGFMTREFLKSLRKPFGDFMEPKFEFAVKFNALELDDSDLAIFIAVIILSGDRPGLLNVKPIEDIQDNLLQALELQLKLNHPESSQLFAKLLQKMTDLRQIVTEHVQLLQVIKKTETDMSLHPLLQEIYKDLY

Tests used:
[1] = molecular target: Estrogen receptor (Homo sapiens) (UniProt P03372); assay: qHTS assay to identify small molecule agonists of the estrogen receptor alpha (ER-alpha) signaling pathway using the BG1 cell line (AID 743079); note: nearly all actives have a fitted effect of over 20% in size; note: potency is the fitted concentration of half-maximal effect
[2] = qHTS assay to identify small molecule antagonists of the estrogen receptor alpha (ER-alpha) signaling pathway using the BG1 cell line (AID 743080; calls by dose curve; note: nearly all actives have a fitted effect of over 25% in size); conditions: BG1Luc4E2 ERE-luciferase antagonist mode, luminescence
In short: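 Antagonist mode: compounds in DMSO were pinned onto BG1-Luc-4E2 cells alongside 17beta-estradiol agonist, incubated 21.5 h, and ERE-driven luciferase measured with ONE-Glo. Cytotoxicity was multiplexed using CellTiter-Fluor fluorescence.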

[3] = qHTS assay to identify small molecule antagonists of the estrogen receptor alpha (ER-alpha) signaling pathway using the BG1 cell line - cell viability counter screen (AID 743081);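 note: compound given together with 17beta-estradiol as the ER stimulus; nearly all actives have a fitted effect of over 45% in size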
Aromatase (Homo sapiens) = Aromatase (Homo sapiens) (UniProt P11511); assay: qHTS assay to identify aromatase inhibitors (AID 743083); conditions: MCF-7 aro ERE, testosterone-driven ERE luciferase, 24 h; note: nearly all actives have a fitted effect of over 55% in size
[4] = qHTS assay to identify aromatase inhibitors - cell viability counter screen (AID 743084); conditions: MCF-7 aro ERE viability, CellTiter-Fluor, 24 h;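 note: cells stimulated with testosterone during compound exposure; nearly all actives have a fitted effect of over 55% in size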
[5] = molecular target: Aryl hydrocarbon receptor (Homo sapiens) (UniProt P35869); assay: qHTS assay to identify small molecule that activate the aryl hydrocarbon receptor (AhR) signaling pathway (AID 743085); note: nearly all actives have a fitted effect of over 15% in size; note: potency is the fitted concentration of half-maximal effect;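 for activation: HG2L7.5c1 human HepG2 liver cells with stably integrated DRE-driven firefly reporter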
[6] = qHTS assay to identify small molecule that activate the aryl hydrocarbon receptor (AhR) signaling pathway - cell viability counter screen (AID 743086);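 note: HepG2 liver cells carrying the AhR DRE luciferase reporter; nearly all actives have a fitted effect of over 45% in size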
In short: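 HepG2-AhR-luc (HG2L7.5c1) cells, 4000/well, treated 24 h at 37 C with compound; viability measured as CellTiter-Fluor fluorescence after 30 min in the same wells as the luciferase read.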

[7] = molecular target: Peroxisome proliferator-activated receptor gamma (Homo sapiens) (UniProt P37231); assay: qHTS assay to identify small molecule agonists of the peroxisome proliferator-activated receptor gamma (PPARg) signaling pathway (AID 743094; active = well fitted activation curve with a large enough effect in the signal ratio in the repeat runs, not every such curve was filed as active; the % refers to the signal ratio); conditions: HEK293H PPARg-UAS-bla, beta-lactamase FRET ratio, 17 h
In short: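 Agonist activity was taken from a beta-lactamase reporter (FRET substrate, 1 h at room temperature) in HEK293H cells carrying a PPARg UAS-bla construct. Compounds in DMSO were incubated 17 h at 37C after a 5 h cell pre-incubation.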

[8] = molecular target: Peroxisome proliferator-activated receptor gamma (Homo sapiens) (UniProt P37231); assay: qHTS assay to identify small molecule antagonists of the peroxisome proliferator-activated receptor gamma (PPARg) signaling pathway (AID 743191; calls by dose curve; note: nearly all actives have a fitted effect of over 30% in size; note: potency is the fitted concentration of half-maximal effect)
In short: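 GeneBLAzer PPARg UAS-bla HEK293H cells, 5 h post-plating, exposed to compounds 17 h at 37C. LiveBLAzer B/G FRET substrate added for 1 h at room temperature; beta-lactamase reporter read by fluorescence intensity.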

[9] = qHTS assay to identify small molecule antagonists of the peroxisome proliferator-activated receptor gamma (PPARg) signaling pathway - cell viability counter screen (AID 743194); conditions: PPARg-bla HEK293H viability, CellTiter-Glo luminescence, 17 h, co-treated with 50 nM rosiglitazone; note: nearly all actives have a fitted effect of over 55% in size
In short: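 Cytotoxicity counter screen in PPARg-bla HEK293H cells, same wells as reporter assay. Compounds plus 50 nM rosiglitazone (final) for 17 h at 37 C, then viability read by CellTiter-Glo luminescence.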
% is set by controls: 0 for no effect and ±100 for the full control effect.

O=[N+]([O-])OCC(CO[N+](=O)[O-])(CO[N+](=O)[O-])CO[N+](=O)[O-]
inactive: Potency [1] | activity change, negative = inhibition ([2]; at 70.3 µM (top of the series)) -2.91% | Potency [3] | activity, negative = inhibition (Aromatase (Homo sapiens); at 70.3 µM (top of the series)) -11.6% and 14.4% | activity change, negative = cytotoxicity ([4]; at 70.3 µM (top of the series)) -4.68% and 3.53% | Potency [5] | Potency [6] | activation ([7]; at 57 µM (top of the series)) -2.9% | Potency [8] | activity change, negative = cytotoxicity ([9]; at 62.6 µM (top of the series)) 5.64%

CCOP(=O)(CC)OCC
inactive: activity change, negative = inhibition ([2]; at 70.3 µM (top of the series)) 0.917% | Potency [3] | activity, negative = inhibition (Aromatase (Homo sapiens); at 70.3 µM (top of the series)) -1.26% | activity change, negative = cytotoxicity ([4]; at 70.3 µM (top of the series)) 14.7% | Potency [5] | Potency [6] | activation ([7]; at 57 µM (top of the series)) 6.07% | Potency [8] | activity change, negative = cytotoxicity ([9]; at 62.6 µM (top of the series)) 13.8%

COc1ccc([N+](=O)[O-])cc1[N+](=O)[O-]
inactive: Potency [1] | activity change, negative = inhibition ([2]; at 70.3 µM (top of the series)) 0.466% | Potency [3] | activity, negative = inhibition (Aromatase (Homo sapiens); at 70.3 µM (top of the series)) 8.43% | activity change, negative = cytotoxicity ([4]; at 70.3 µM (top of the series)) 15% | Potency [6] | activation ([7]; at 57 µM (top of the series)) 0.365% | Potency [8] | activity change, negative = cytotoxicity ([9]; at 62.6 µM (top of the series)) 1.81%

CCN(CC)CCCl
inactive: Potency [1] | activity change, negative = inhibition ([2]; at 95 µM (top of the series)) -11.7% | Potency [3] | activity, negative = inhibition (Aromatase (Homo sapiens); at 95 µM (top of the series)) -1.26% | activity change, negative = cytotoxicity ([4]; at 95 µM (top of the series)) -20.8% | Potency [5] | Potency [6] | Potency [8] | activity change, negative = cytotoxicity ([9]; at 81.1 µM (top of the series)) -2.85%

COP(=S)(Cl)OC
inactive: Potency [8]

CC(C)N(CCCl)C(C)C
active: Potency [1] 13.3 µM
inactive: activity change, negative = inhibition ([2]; at 70.3 µM (top of the series)) 4.14% | activity, negative = inhibition (Aromatase (Homo sapiens); at 70.3 µM (top of the series)) -8.45% | activity change, negative = cytotoxicity ([4]; at 70.3 µM (top of the series)) 11.3% | Potency [5] | Potency [6] | activation ([7]; at 57 µM (top of the series)) -5.28%

CCOP(=O)(CC)Oc1ccc([N+](=O)[O-])cc1 (configuration not stated)
inactive: Potency [1] | activity change, negative = cytotoxicity ([4]; at 70.3 µM (top of the series)) 2.24% | Potency [5] | Potency [6] | activity change, negative = cytotoxicity ([9]; at 62.6 µM (top of the series)) -15.5%

Cc1cccc([N+](=O)[O-])c1[N+](=O)[O-]
active: Potency [5] 36.4 µM
inactive: activity, negative = inhibition (Aromatase (Homo sapiens); at 70.3 µM (top of the series)) 24.2%

Cc1ccc([N+](=O)[O-])c([N+](=O)[O-])c1
inactive: Potency [1] | activity change, negative = inhibition ([2]; at 70.3 µM (top of the series)) 44.3% | activity, negative = inhibition (Aromatase (Homo sapiens); at 70.3 µM (top of the series)) -4.55% | Potency [6] | activation ([7]; at 57 µM (top of the series)) 0.83% | activation ([7]; at 78.9 µM (top of the series)) 5.63% | activity change, negative = cytotoxicity ([9]; at 62.6 µM (top of the series)) -6.96%
active: Potency [8] 6.92 µM

OCCSCCO
inactive: activity change, negative = inhibition ([2]; at 70.3 µM (top of the series)) 6.45% | activity change, negative = inhibition ([2]; at 95 µM (top of the series)) -8.35% | Potency [3] | activity, negative = inhibition (Aromatase (Homo sapiens); at 70.3 µM (top of the series)) 8.5% | activity, negative = inhibition (Aromatase (Homo sapiens); at 95 µM (top of the series)) 27.9% | activity change, negative = cytotoxicity ([4]; at 70.3 µM (top of the series)) -4.49% | activity change, negative = cytotoxicity ([4]; at 95 µM (top of the series)) -1.37% | Potency [5] | Potency [6] | activation ([7]; at 57 µM (top of the series)) -0.353% | activation ([7]; at 78.9 µM (top of the series)) -0.166% | activity change, negative = cytotoxicity ([9]; at 62.6 µM (top of the series)) 5.56% | activity change, negative = cytotoxicity ([9]; at 81.1 µM (top of the series)) -11.6%

CCOC(=O)Cl
inactive: Potency [8]

C/C1=C2N=C(/C=C3N=C(/C(C)=C4\[N-][C@@](C)([C@@H]5N=C1[C@](C)(CCC(=O)NC[C@@H](C)OP(=O)([O-])O[C@H]1[C@@H](O)[C@@H](n6cnc7cc(C)c(C)cc76)O[C@@H]1CO)[C@H]5CC(N)=O)[C@@](C)(CC(N)=O)[C@@H]4CCC(N)=O)[C@@](C)(CC(N)=O)[C@@H]\3CCC(N)=O)C(C)(C)[C@@H]/2CCC(N)=O.[C-]#N.[Co+3]
inactive: activity change, negative = inhibition ([2]; at 32.5 µM (top of the series)) 7.62% | activity, negative = inhibition (Aromatase (Homo sapiens); at 32.5 µM (top of the series)) -1.17% | activity change, negative = cytotoxicity ([4]; at 32.5 µM (top of the series)) -2.75% | Potency [5] | Potency [6] | activation ([7]; at 26.2 µM (top of the series)) 3.91% | Potency [8] | activity change, negative = cytotoxicity ([9]; at 62.6 µM (top of the series)) 14%

CC(C)OP(C)(=O)OC(C)C
inactive: Potency [1] | activity change, negative = inhibition ([2]; at 70.3 µM (top of the series)) 7.11% and 3.01% | Potency [3] | activity, negative = inhibition (Aromatase (Homo sapiens); at 70.3 µM (top of the series)) -6.22% and -12.3% | activity change, negative = cytotoxicity ([4]; at 70.3 µM (top of the series)) 8.62% and 7.05% | Potency [5] | Potency [6] | activation ([7]; at 57 µM (top of the series)) 0.096% and -0.475% | activity change, negative = cytotoxicity ([9]; at 62.6 µM (top of the series)) -9.09% and 27.7%

[NH4+].[O-][Cl+3]([O-])([O-])[O-]
inactive: Potency [3] | activity, negative = inhibition (Aromatase (Homo sapiens); at 70.3 µM (top of the series)) 25.7% | activity, negative = inhibition (Aromatase (Homo sapiens); at 95 µM (top of the series)) 5.11% | activity change, negative = cytotoxicity ([4]; at 70.3 µM (top of the series)) 9.25% | activity change, negative = cytotoxicity ([4]; at 95 µM (top of the series)) 6.95% | Potency [6] | activation ([7]; at 57 µM (top of the series)) 1.41% | activation ([7]; at 78.9 µM (top of the series)) -1.79% | Potency [8] | activity change, negative = cytotoxicity ([9]; at 62.6 µM (top of the series)) -25.3% | activity change, negative = cytotoxicity ([9]; at 81.1 µM (top of the series)) 26.5%
